Literature values in patent publication US20100004187A1 (priority 2008, published 2010).

The chains behind the UniProt entries cited, without tags or fusion partners. Residues count along the entry.
UniProt P02930, 23-493: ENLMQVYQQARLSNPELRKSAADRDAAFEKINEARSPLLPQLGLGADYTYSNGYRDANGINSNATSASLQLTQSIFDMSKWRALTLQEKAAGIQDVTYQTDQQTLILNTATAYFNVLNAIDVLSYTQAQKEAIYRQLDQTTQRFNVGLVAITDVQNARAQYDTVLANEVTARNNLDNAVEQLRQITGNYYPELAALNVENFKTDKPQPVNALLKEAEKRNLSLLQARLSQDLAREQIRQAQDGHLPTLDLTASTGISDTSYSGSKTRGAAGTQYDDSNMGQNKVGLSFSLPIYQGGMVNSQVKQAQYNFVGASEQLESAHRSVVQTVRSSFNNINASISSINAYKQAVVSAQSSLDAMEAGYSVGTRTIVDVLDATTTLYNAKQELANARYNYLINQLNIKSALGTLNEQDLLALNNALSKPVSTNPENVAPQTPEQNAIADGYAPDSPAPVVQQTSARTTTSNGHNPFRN

Target: TolC (E. coli) (Escherichia coli, UniProt P02930)
Details: read-out: binding affinity; isothermal titration calorimetry; cited from earlier work

Substance: hexamminecobalt (III) chloride [Cohex]
- Kd: 20 nM
